According to patent US20050074404A1, “Methods for avoiding renal injury” (Pfizer Inc., priority 2002, published 2005):

Key:
[1] = Urinary retinol concentrations in rats (HPLC); type: in vivo, rat; conditions: after a single dose at 100 mg/kg
Protocol: A. Dosing of Mammals, Collection and Storage of Urine
Male Sprague Dawley rats (105-125 grams each) were purchased from Charles River (Kingston, N.Y.). Gentamicin sulfate, 100 mg/mL, was purchased from Fermenta Animal Health Co. (Kansas City, Mo., catalog #568-2589, 2417). Rats were dosed intramuscular, using a 25 gauge tuberculin syringe. The animals were housed individually prior to urine collection. For the urine collection, rats were transferred to individual metabolism cages. At all times throughout the study, the animals had free access to food and water. Forty-eight rats were divided equally into two dosage groups: 0 mg/kg (control) and 100 mg/kg gentamicin. Rats were dosed once per day for the duration of 1, 4 or 9 days. Urine was collected after one dose, four doses and nine doses. Each collection period was for 24 hours. Urine was collected, chilled to approximately 4° C. and protected from light. Total urine volume was measured at the end of each collection period prior to retinol analysis. […]
The HPLC instrumentation consisted of a Hewlett-Packard Model 1090 Series II system (Hewlett Packard Company, Palo Alto, Calif.) equipped with a tertiary gradient pump, diode array detector, and a cooled auto-sampler. […] Absorbance data for all retinols was collected at a wavelength of 340 nm. […]

[2] = Urinary albumin concentrations in rats; type: in vivo, rat; conditions: after a single dose at 100 mg/kg
Protocol: Male Sprague Dawley rats (105-125 grams each) were purchased from Charles River (Kingston, N.Y.). Gentamicin sulfate, 100 mg/mL, was purchased from Fermenta Animal Health Co. (Kansas City, Mo., catalog #568-2589, 2417). Rats were dosed intramuscular, using a 25 gauge tuberculin syringe. The animals were housed individually prior to urine collection. For the urine collection, rats were transferred to individual metabolism cages. At all times throughout the study, the animals had free access to food and water. Forty-eight rats were divided equally into two dosage groups: 0 mg/kg (control) and 100 mg/kg gentamicin. Rats were dosed once per day for the duration of 1, 4 or 9 days. Urine was collected after one dose, four doses and nine doses. Each collection period was for 24 hours. Urine was collected, chilled to approximately 4° C. and protected from light. Total urine volume was measured at the end of each collection period prior to retinol analysis. The urine was stored at −80° C. and in darkness to protect the components of the urine from oxidation and degration until analysis.

What does the source list for Gentamicin sulfate?
Retinol excretion [1]: significant increase; Albumin excretion [2]: significant increase
